Laboratory results from patent publication US20020025974A1, “BICYCLE THIOPHENES AND THIAZOLES” (priority 1998, published 2002).
Where two headings read alike, the source gives them in different places.

Sequences of proteins named here, by UniProt entry; tags and fusion partners are left off.
UniProt P22909, whole entry: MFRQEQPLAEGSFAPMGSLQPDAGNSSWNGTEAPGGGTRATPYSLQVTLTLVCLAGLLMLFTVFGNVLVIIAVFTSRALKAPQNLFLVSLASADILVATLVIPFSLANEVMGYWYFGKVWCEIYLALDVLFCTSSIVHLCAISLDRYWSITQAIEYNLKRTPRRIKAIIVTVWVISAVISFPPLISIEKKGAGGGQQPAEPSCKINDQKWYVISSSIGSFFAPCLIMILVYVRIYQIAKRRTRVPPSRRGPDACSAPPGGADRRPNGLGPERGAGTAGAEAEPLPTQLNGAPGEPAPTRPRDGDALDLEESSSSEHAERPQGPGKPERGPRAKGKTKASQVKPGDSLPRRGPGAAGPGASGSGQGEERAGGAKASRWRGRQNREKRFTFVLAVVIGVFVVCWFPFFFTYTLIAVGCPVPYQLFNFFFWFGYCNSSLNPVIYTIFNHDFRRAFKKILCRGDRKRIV

Assays:
[1] = test system: acetylcholine bromide-induced abdominal constriction; test: Mouse Acetylcholine Bromide-Induced Abdominal Constriction Assay (MAIT); conditions: po, acetylcholine bromide 5.5 mg/kg i.p. 30 minutes after drug, dose not given
Experimental: Mouse Acetylcholine Bromide-Induced Abdominal Constriction Assay (MAIT)
The mouse acetylcholine bromide-induced abdominal constriction assay, as described by Collier et al. in Brit. J. Pharmacol. Chem. Ther., 32: 295-310, 1968, with minor modifications was used to assess analgesic potency of the compounds herein. The test drugs or appropriate vehicle were administered orally (p.o.) and 30 minutes later the animal received an intraperitoneal (i.p.) injection of 5.5 mg/kg acetylcholine bromide (Matheson, Coleman and Bell, East Rutherford, N.J.). The mice were then placed in groups of three into glass bell jars and observed for a ten minute observation period for the occurrence of an abdominal constriction response (defined as a wave of constriction and elongation passing caudally along the abdominal wall, accompanied by a twisting of the trunk and followed by extension of the hind limbs). The percent inhibition of this response to a nociceptive stimulus (equated to % analgesia) was calculated as follows: The % Inhibition of response, i.e., % analgesia is equal to the difference between the number of control animals responding and the number of drug-treated animals responding times 100 divided by the number of control animals responding.
At least 15 animals were used for control and in each of the drug treated groups. At least three doses were used to determine each dose response curve and ED50 (that dose which would produce 50% analgesia). The ED50 values and their 95% fiducial limits were determined by a computer assisted probit analysis.

[2] = molecular target: Alpha-2D adrenergic receptor (Rattus norvegicus, UniProt P22909); test: Alpha-2D adrenergic receptor binding assay (3H-para-aminoclonidine, rat cortex synaptic membranes)

c1nc(Cc2cc3c(s2)CCCC3)c[nH]1
MAIT [1]: 7 po
Ki ([2]; read-out: α2D Ki, ligand 3H-para-aminoclonidine, 25° C. 20 min): 3.7 nM

CC(c1c[nH]cn1)c1cc2c(s1)CCCC2 (centres unmarked)
MAIT ([1]; tested form: fumarate (1:1)): 20 po
Ki ([2]; read-out: α2D Ki, ligand 3H-para-aminoclonidine, 25° C. 20 min, tested form: fumarate (1:1)): 40 nM

c1ccc2sc(Cc3c[nH]cn3)nc2c1
MAIT ([1]; tested form: fumarate (1.5 C4H4O4)): 7 po
